Results published in patent US12637430B2, “Interleukin-17 (IL-17) inhibitors” (priority 2020, dated 2026).

The chains behind the UniProt entries cited, without tags or fusion partners. Residues count along the entry.
UniProt Q16552, 20-155 limits assumed: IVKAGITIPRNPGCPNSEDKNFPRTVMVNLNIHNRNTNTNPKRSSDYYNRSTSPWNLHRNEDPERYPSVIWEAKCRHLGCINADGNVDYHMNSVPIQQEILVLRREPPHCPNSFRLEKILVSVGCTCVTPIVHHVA
UniProt Q16552, 24-155 limits assumed: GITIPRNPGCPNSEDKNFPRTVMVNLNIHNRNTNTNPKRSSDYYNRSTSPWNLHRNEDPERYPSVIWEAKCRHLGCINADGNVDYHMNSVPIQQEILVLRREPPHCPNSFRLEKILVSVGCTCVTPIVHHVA

How the values were obtained:
human IL-17A [1] = target: T1, human IL-17A (Homo sapiens, UniProt Q16552); experiment: Inhibition of chemokine GROα/CXCL1 generation induced by human IL-17A protein in HT-29 cell; assay type: cell-based; conditions: read-out: HT-29 IC50; GROα/CXCL1 in HT-29 supernatant, 30 ng/mL human IL-17A, 48 hours
Description: HT-29 (Zhongyuan Gongchuang Technology Co., Ltd. of Chengdu, Sichuan) was added to a 96-well plate at 5×10^4 cells/well, and cultured overnight in a incubator at 37° C. A mixture of 30 ng/mL of human IL-17A protein (R&D, #317-ILB) and IL-17A small molecule inhibitors with gradient concentrations or 0.3 μg/mL of positive control IL-17A antibody (R&D, #AF-317-NA) was incubated at 37° C. for 1 h, and then added to the above-mentioned 96-well plate, and incubated with HT-29 cells at 37° C. for 48 hours. Then the GROα level in the cell culture supernatant was detected by an ELISA kit (Cisbio, #62HCXC1PEG) of the GROα.
According to the methods described in Experimental Examples 1 and 2, the compounds prepared in the above-mentioned examples were subjected to the experiment on inhibition of chemokine GROα/CXCL1 generation induced by human IL-17A protein in HT-29 cell.

human IL-17A [2] = target: T1, human IL-17A; experiment: IL-17A enzyme-linked immunosorbent assay (competitive ELISA, IL-17A/IL-17R binding); conditions: read-out: ELISA IC50, IL-17A coated, 16 nM IL-17R
Description: The inhibition of receptor-ligand binding by human IL-17A inhibitors was quantified by competitive ELISA. 0.2 μg/mL of IL-17A (Sino Biological Inc. Cat #12047-H07B) was added in a 96-well plate at 100 μl per well for incubation for 30 min under 37° C. The 96-well plate was washed with PBST (PBS, 0.05% Tween-20) at 200 μl per well for 4 times, and then added with 200 μl of 5% skim milk and placed on a shaker for incubation at 25° C. for 30 min. The compound to be tested was prepared at 100× concentration ranging from 0.003 μM to 30 μM. After washed with PBST (PBS, 0.05% Tween-20) 4 times, the plate was added with 89 μl of PBST and 1 μl of the compound to be tested at 100× concentration followed by uniformly mixing and pre-incubation at 25° C. for 10 min. Then the plate was added with 10 μl of 16 nM IL-17R, and incubated on a shaker at 25° C. for 30 min. After washed for 4 times, the plate was added with 100 μl of anti-Fc-tag horseradish peroxidase (HRP)-conjugated antibody, and incubated on a shaker at 25° C. for 30 min. After washed 4 times, the plate was added with 100 μl of 3,3′, 5,5″-tetramethylbenzidine (TMB) substrate solution, and incubated at 25° C. in the dark. Then the plate was added with 20% HCl, followed by detection of the light absorption value at a wavelength of 450 nm by a microplate reader. […]

Row | Compound | IC50 (human IL-17A [1]) [µM] | IC50 (human IL-17A [2]) [µM]
1 | CCn1nccc1C(=O)N[C@H](C(=O)Nc1cnc(-c2c(C)n[nH]c2C)c(F)c1)C(C1CC1)C1(C)CC1 (stereo partly shown) | 0.203 | 0.026
2 | Cn1nccc1C(=O)N[C@H](C(=O)Nc1ccc(C2CCOCC2)nc1)[C@H](c1ccccc1Cl)C1(C)CC1 | 2 | 0.007
